Ab-14 heavy chain CDR variants: yeast mating affinities

The measurements come from Li et al. 2023 (doi:10.1038/s41467-023-39022-2) through the FLAb antibody collection.

Target peptide (SARS-CoV-2 spike, HR2 region): PDVDLGDISGINAS

Parent scFv Ab-14: VH joined to VL by three GGGGS repeats. Changes lie in the heavy chain CDRs alone.
VH: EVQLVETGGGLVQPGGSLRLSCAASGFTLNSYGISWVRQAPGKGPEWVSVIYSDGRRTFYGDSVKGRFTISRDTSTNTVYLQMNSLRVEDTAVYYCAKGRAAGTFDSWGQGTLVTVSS
VL: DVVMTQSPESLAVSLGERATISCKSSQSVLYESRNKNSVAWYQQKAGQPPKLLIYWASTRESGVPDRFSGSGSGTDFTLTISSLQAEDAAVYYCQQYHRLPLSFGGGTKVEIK

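The parent was found by panning a naive human phage display library on the peptide. This is the validation round: designs drawn from the data on random variants, tested in the same kind of assay. Group labels follow the data file (En: ensemble of fine-tuned language models; HC: hill climbing; Gen: genetic algorithm; Gibbs: Gibbs sampling; a sequence that several methods proposed may carry one label only). The assay is AlphaSeq: two haploid yeast populations carry antibody and antigen on their surface. The frequency of each diploid, read from paired DNA barcodes, reflects how well the two displayed proteins bind. Each replicate has its own calibration line, from reference interactions of the BCL2 family. Mating was done six times.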

Each variant is given by its three heavy chain CDRs, as the data file delimits them; those of the parent are GFTLNSYGIS, VIYSDGRRTFYGDSVK, GRAAGTFDS.
Variants here have more than six changes.
The Kd shown is the geometric mean over detected replicates; a lower Kd is a better binder.
"nd" marks a missing value. The strain was present, yet no cells mated with the target were sequenced in any replicate, which points to weak or no binding.
A sequence measured in both rounds can read differently, since the two assays cover different ranges.

The variant GFKLEEYGIS | VIYADGQRVAYQDKVK | GQHAGMFDV [En_Gibbs] gave 8.7 nM (6 of 6 replicates; controls 0 of 18). The variant GFDLDEYGIS | VIYADGRRTFYADSVK | GEAAGTFVS [En_HC] gave 590 pM (6 of 6 replicates; controls 0 of 18). The variant GQSLDDYGIS | VIYADGQRKAYVDEVK | GEVAGTFDI [En_Gibbs] showed 650 pM (6 of 6 replicates; controls 0 of 18). For GFDVNEYGIS | VIYADGTRTAYANTVK | GKVVGVFGD [En_Gibbs], the assay gave nd (0 of 6 replicates; controls 1 of 18). The variant GFSLDEYGIS | VIYADGTRTFYTDNVK | GLIAMVCGL [En_Gibbs] gave nd (0 of 6 replicates; controls 0 of 18).

For GDDLQEYGIS | VIYADGLRTAYGNSVK | GGSNGLVTV [En_Gibbs], the assay gave nd (0 of 6 replicates; controls 1 of 18). The variant GFDLNEYGIS | VIYADGMRTAYKDSVK | GNNAGTFDV [En_Gen] showed 260 pM (6 of 6 replicates; controls 0 of 18). With GFNLNEYGIS | VIYADGKRTFYADSVK | GEHAGTFDI [En_HC] the result was 53 pM (6 of 6 replicates; controls 0 of 18). The variant GFDLNEYGIS | VIYADGMRTYYADSVK | GQVAGTFDI [En_Gen] showed 920 pM (6 of 6 replicates; controls 0 of 18). The variant GFDLEDYGIS | VIYADGRRTAYADSVK | GETAGTFDL [En_HC] gave 1.2 nM (6 of 6 replicates; controls 0 of 18).

For GFDLNEYGIS | VIYADGLRTAYADSVK | GENAGTFDI [En_Gen], the assay gave 1.1 nM (6 of 6 replicates; controls 0 of 18). The variant GFDLDEYGIS | VIYADGMRTAYTDSVK | GNEAGTFDI [En_Gen] showed 20 nM (5 of 6 replicates; controls 0 of 18). For GEDLMEYGIS | VIYADGERISYANSVK | GGVSGNFSS [En_Gibbs], the assay gave nd (0 of 6 replicates; controls 3 of 18). The variant GDGLEDYGIS | VIYADGMRTYYAPNVK | GEVNGVMDI [En_Gibbs] showed nd (0 of 6 replicates; controls 0 of 18). With GFDLNEYGIS | VIYADGKRTFYADKVK | GNVAGTFDI [En_HC] the result was 210 pM (6 of 6 replicates; controls 0 of 18).

For GMDLGEYGIS | VIYADGERASYTNNFK | GVNAGFLTV [En_Gibbs], the assay gave 67 nM (1 of 6 replicates; controls 0 of 18). For GFDLNEYGIS | VIYADGVQRFYTDDVK | GGNQGGFVL [En_Gibbs], the assay gave nd (0 of 6 replicates; controls 1 of 18). For GFDLDEYGIS | VIYADGRRTYYQDSVK | GNVAGTFDV [En_HC], the assay gave 470 pM (6 of 6 replicates; controls 0 of 18). The variant EFDLQEYGIS | VIYADGKREAYKDNFK | GNGAGTFDA [En_Gibbs] showed nd (0 of 6 replicates; controls 0 of 18). For GFDLNEYGIS | VIYADGQRTAYDDSVK | GQVAGTFDS [En_HC], the assay gave 200 pM (6 of 6 replicates; controls 1 of 18).

The variant GFDLNEYGIS | VIYADGRRTAYADSVK | GENAGTFDS [En_HC] gave 380 pM (6 of 6 replicates; controls 0 of 18). The variant GFNLDEYGIS | VIYADGMRTAYSDSVK | GNVAGTFDI [En_Gen] showed 300 pM (6 of 6 replicates; controls 0 of 18). The variant GFNLEEYGIS | VIYADGKRSSVSDSVK | GQLGNAFDL [En_Gibbs] showed 97 nM (1 of 6 replicates; controls 1 of 18). With GFDLNEYGIS | VIYADGRRTAYADSVK | GNEAGTFDM [En_Gen] the result was 310 pM (6 of 6 replicates; controls 0 of 18). For GFGLDEYGIH | VIYADGMRSNYANSVK | GHQAGVIVV [En_Gibbs], the assay gave nd (0 of 6 replicates; controls 0 of 18).

The variant GFDLDKYGIS | VIYADGMRKSYADKVK | GRLSGTFYI [En_Gibbs] gave nd (0 of 6 replicates; controls 0 of 18). The variant GFDLDEYGIS | VIYADGRRTFYADSVK | GEVAGTFDI [En_HC] gave 500 pM (6 of 6 replicates; controls 2 of 18). For GFDLGEYGIS | VIYADGVRQSYVDKVK | GANGVFSLV [En_Gibbs], the assay gave nd (0 of 6 replicates; controls 0 of 18). With GFGLMDYGIS | VIYADGMRRSYANSVK | GKHAGIFDF [En_Gibbs] the result was nd (0 of 6 replicates; controls 0 of 18). For GFDLNEYGIS | VIYADGKRTAYSDSVK | GEAAGTFDV [En_HC], the assay gave 740 pM (6 of 6 replicates; controls 0 of 18).

With GFDLDEYGIS | VIYADGQRTAYADSVK | GGNAGTFDV [En_Gen] the result was 380 pM (6 of 6 replicates; controls 1 of 18). For GFDLDEYGIS | VIYADGMRTAYADSVK | GEVAGTFDV [En_Gen], the assay gave 350 pM (6 of 6 replicates; controls 0 of 18). The variant GFDLDEYGIS | VIYADGKRTAYADNVK | GEVAGTFDV [En_Gen] showed 240 pM (6 of 6 replicates; controls 0 of 18). With GFDLDEYGIS | VIYADGRRTFYTDSVK | GQNAGTFDQ [En_HC] the result was 6.3 nM (6 of 6 replicates; controls 1 of 18). The variant GFDLDEYGIS | VIYADGMRTAYADNVK | GNVAGTFDV [En_Gen] showed 1.2 nM (6 of 6 replicates; controls 0 of 18).

The variant GFDLNEYGIS | VIYADGMRTVYADSVK | GTNAGTFDI [En_Gen] showed 420 pM (6 of 6 replicates; controls 0 of 18).

6 of these entries, quoted again:

Variant GFDLEDYGIS | VIYADGRRTAYADSVK | GETAGTFDL [En_HC] gave 1.2 nM (6 of 6 replicates; controls 0 of 18).
Variant GFDLDEYGIS | VIYADGMRTAYADNVK | GNVAGTFDV [En_Gen] gave 1.2 nM (6 of 6 replicates; controls 0 of 18).
Variant GFGLMDYGIS | VIYADGMRRSYANSVK | GKHAGIFDF [En_Gibbs] gave nd (0 of 6 replicates; controls 0 of 18).
Variant GFNLDEYGIS | VIYADGMRTAYSDSVK | GNVAGTFDI [En_Gen] gave 300 pM (6 of 6 replicates; controls 0 of 18).
Variant GFDLNEYGIS | VIYADGRRTAYADSVK | GNEAGTFDM [En_Gen] gave 310 pM (6 of 6 replicates; controls 0 of 18).
Variant GFDLDKYGIS | VIYADGMRKSYADKVK | GRLSGTFYI [En_Gibbs] gave nd (0 of 6 replicates; controls 0 of 18).

Nonspecific signal, from three strains lacking the peptide, appeared in 1% of pairings of all heavy chain designs, centred on 120 nM (5% of these signals below 7.0 nM); values are not corrected for it. For each scFv, signals with the empty controls are counted beside the result.
The authors' rule: three or more of the six replicates give a measured affinity, fewer mean a poor binder.